T1: neuromedin-B preferring receptor (NMB-R) on C6 rodent glioblastoma cells (rodent, UniProt P24053 1-390, limits assumed)
T1 construct: whole, on cells; also called C6/NMB-R
T1 sequence (looked up): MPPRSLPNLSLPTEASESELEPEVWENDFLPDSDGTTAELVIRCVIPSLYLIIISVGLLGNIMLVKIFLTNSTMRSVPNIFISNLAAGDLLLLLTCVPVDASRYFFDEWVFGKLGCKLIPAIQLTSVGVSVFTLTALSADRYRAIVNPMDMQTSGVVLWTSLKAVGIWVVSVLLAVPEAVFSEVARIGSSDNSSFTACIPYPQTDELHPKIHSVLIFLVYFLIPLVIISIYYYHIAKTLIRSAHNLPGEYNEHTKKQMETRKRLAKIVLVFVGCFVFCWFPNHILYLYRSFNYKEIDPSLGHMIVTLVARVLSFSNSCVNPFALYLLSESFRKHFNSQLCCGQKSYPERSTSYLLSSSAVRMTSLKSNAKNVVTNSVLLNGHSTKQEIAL

The chains behind the UniProt entries cited, without tags or fusion partners. Where a name states a change or a piece, a line headed by the entry shows the natural chain unless it says otherwise.
UniProt P30550: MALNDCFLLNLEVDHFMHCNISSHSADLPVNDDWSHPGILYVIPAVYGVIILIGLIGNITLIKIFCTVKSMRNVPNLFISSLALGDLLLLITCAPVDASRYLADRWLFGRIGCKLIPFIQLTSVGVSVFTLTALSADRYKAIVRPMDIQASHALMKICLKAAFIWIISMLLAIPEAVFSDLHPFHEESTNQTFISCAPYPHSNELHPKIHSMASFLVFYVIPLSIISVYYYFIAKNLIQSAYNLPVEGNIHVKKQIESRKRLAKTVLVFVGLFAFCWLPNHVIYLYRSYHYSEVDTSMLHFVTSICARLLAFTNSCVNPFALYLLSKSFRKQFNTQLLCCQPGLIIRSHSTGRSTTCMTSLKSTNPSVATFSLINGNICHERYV


Legend:
[1] = target: T2, gastrin releasing peptide receptor (GRP-R) (human, UniProt P30550 1-384); assay: 125I-BBN competition, PC3 cells
T2 construct: whole, on cells; also called GRP receptor; BB2

[2] = target: T1, neuromedin-B preferring receptor …; assay: 125I-NMB competition, C6 cells

IC50 [1]	IC50 [2]	Binder
75 nM		QWAVGHL (N-term: DO3A-monoamide-Gly-4-aminobenzoic acid-(D)-Phe; C-terminal pentylamide (NH-Pentyl), also called DO3A-monoamide-Gly-4-aminobenzoic acid-(D)-Phe-QWAVGHL-NH-Pentyl) [L219]
	13 nM	QWAVGHLM (N-term: N,N-dimethylglycine-Ser-Cys(Acm)-Gly-N-4-aminoethyl-N-1-piperazineacetic acid-Ser; C-term amide) [L28]
53 nM		LGNQWAVGHLM (N-term: pGlu-Gln-Lys(DO3A-monoamide-Gly-4-aminobenzoic acid on the Lys side chain); C-term amide) [L218]

From US20130136691A1 (BRACCO IMAGING S P A, published 2013)
